Source: ChEMBL document CHEMBL6083232, “A review on synthetic inhibitors of dual-specific tyrosine phosphorylation-regulated kinase 1A (DYRK1A) for the treatment of Alzheimer's disease (AD)” (Bioorg Med Chem, 2024)

Target: Dual specificity tyrosine-phosphorylation-regulated kinase 1A (Homo sapiens, UniProt Q13627)
Assay: Inhibition of DYRK1A (unknown origin) extracted from Escherichia coli BL21 (DE3) cells measured for 60 mins by FRET assay

CCN1/C(=C/C(C)=O)Sc2ccc(OC)cc21
IC50: 0.93 nM
